# uPA generation: cell surface uPA generation inhibition; cell surface uPA generation assay, qHTS; Potency, µM (top dose mostly 38.3 µM), for the others: at the highest dose activity change, negative = inhibition, usual class: inhibitors; 330,000 tested, 0.31% active; active means well fitted inhibition curve with a large enough effect; inconclusive means small, poorly fitted or top-dose-only effect; inactive means no such curve, though single readings can be large or run the other way; tested in mouse RAW 264.7 cells; further: potency means the concentration at half of the fitted maximal effect; on the % scale 0 is the no-effect control and ±100 the full control effect; nearly all actives have a fitted effect of over 55% in size
# DT40 TDP1 CPT: growth inhibition of DT40 Tdp1-/-;hTDP1 cells with camptothecin (screen for TDP1 inhibitors); AID 686979; 420,000 tested, 12% active; Potency, µM (titrated, usually from 46.2 µM), for inactives: at the highest dose activity change, negative = growth inhibition, most hits filed as inhibitors; chicken DT40 Tdp1-/-;hTDP1 cells + 20 nM CPT, ATP luminescence, 48 h; further: potency means the concentration at half of the fitted maximal effect; on the % scale 0 is the no-effect control and ±100 the full control effect; nearly all actives have a fitted effect of over 55% in size
#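 Cell growth measured by CellTiter-Glo luminescence after a minimum 48 h, 37 C compound exposure with 20 nM CPT in Tdp1-knockout DT40 cells stably expressing hTDP1, seeded 400/well; qHTS titration format.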
# miR-21 reporter: raises the signal of a miR-21 reporter | Potency, µM (doses to about 38.3 µM), for inactives: top-dose reporter change, positive = more light | HeLa miR-21 FLuc reporter, luciferase, 48 h | AID 2288 | 340,000 tested, under 10 active; active = well fitted rising curve with a large enough effect; inconclusive = small, poorly fitted or top-dose-only effect; inactive = no such curve, though single readings can be large or run the other way;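 also: % of control where 0% means no effect; miR-21 action dims this reporter so a rising signal means less miR-21 action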
#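 Compounds were titrated across several concentrations (up to approximately 40 uM) and incubated 48 hours with HeLa miR-21-FLuc reporter cells (miR-21 target sequence downstream of FLuc, endogenous miR-21). Readout was firefly luciferase luminescence after lytic detection reagent.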
# DT40 TDP1 no CPT: qHTS for Inhibitors of human tyrosyl-DNA phosphodiesterase 1 (TDP1): qHTS in cells in absence of CPT; Potency, µM (series often up to 46.2 µM), for the others: top-dose activity change, negative = growth inhibition, actives largely listed as inhibitors; AID 686978, 2013; 420,000 tested, 15% active; DT40 Tdp1-/- hTDP1 cells, no CPT, ATP luminescence, 48 h; further: potency means the concentration at half of the fitted maximal effect; on the % scale 0 is the no-effect control and ±100 the full control effect; nearly all actives have a fitted effect of over 55% in size
#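 Chicken DT40 Tdp1-/- cells stably complemented with human TDP1 were seeded at 400 cells/well with DMSO in place of 20 nM camptothecin. After compound pinning, cells grew at least 48 hr at 37 °C; viability read by CellTiter-Glo luminescence.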
# TDP1 block: inhibitors of human tyrosyl-DNA phosphodiesterase TDP1; Q9NUW8; Potency, µM (titrated, usually from 130 µM), for inactives: at the top dose activity change, negative = inhibition, actives largely listed as inhibitors; recombinant TDP1, AlphaScreen DNA substrate cleavage; 350,000 tested, 0.28% active; further: potency means the concentration at half of the fitted maximal effect; on the % scale 0 is the no-effect control and ±100 the full control effect; nearly all actives have a fitted effect of over 40% in size
#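 Here, a 5' biotin and 3' phosphotyrosine-FITC DNA oligonucleotide reports Tdp1 activity: intact substrate bridges AlphaScreen beads, while cleavage leaves a 3' phosphate and drops signal. All incubations at room temperature.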
# Numbers without * were called inactive; ? = inconclusive; / = no result given. A selection: hits, their analogues and other compounds. The true share with any hit is near 16%. Unless noted, the call rests on the fitted dose curve; in most records, active means well fitted curve in the direction sought with a large enough effect; inconclusive means small, poorly fitted or top-dose-only effect, or another doubt; inactive means no such curve, though single readings can be large; an effect the other way counts as inactive or inconclusive.
# The line under a structure holds: uPA generation	DT40 TDP1 CPT	miR-21 reporter	DT40 TDP1 no CPT	TDP1 block
> CCCn1c(SCC(=O)Nc2ccccc2C(=O)NC2CC2)n[nH]c1=O
    -17%	-14%	/	17%	0%
> O=c1[nH]c(/C=C/c2ccc(OC(F)F)cc2)nc2c1cnn2-c1ccccc1
    -3%	?	-6%	?	5%
> O=C(CCNC(=O)c1ccccc1)NNC(=O)COc1ccccc1Cl
    1%	-3%	/	-1%	2%
> Cc1cc(N2CCN(S(=O)(=O)c3ccc(Cl)cc3)CC2)c2ccccc2n1
    ?	23µM*	26%	21µM*	6%
> Cc1cc(N2CCN(S(=O)(=O)c3ccc(Cl)c(Cl)c3)CC2)c2ccccc2n1
    ?	?	26%	16µM*	-1%
> CNc1cncc(-c2ccc(S(C)(=O)=O)cc2)n1
    /	-22%	/	-18%	/
> Cc1ccc(C)c(CC(=O)N2CCCC(c3cc(C(=O)Nc4ccc5c(c4)OCO5)no3)C2)c1 (stereo unspecified)
    /	15µM*	/	16µM*	/
> CC(C)c1ccc(C(=O)N2CCCC(c3cc(C(=O)Nc4ccc5c(c4)OCO5)no3)C2)cc1 (stereo unspecified)
    /	?	/	21µM*	/
> CCCC(=O)N1CCCC(c2cc(C(=O)NCc3ccccc3)no2)C1 (stereo unspecified)
    /	-11%	/	-7%	/
> CN(C)c1ccc(CC(=O)N2CCCC(c3cc(C(=O)Nc4ccc5c(c4)OCO5)no3)C2)cc1 (stereo unspecified)
    /	16µM*	/	13µM*	/
> CCn1cc(C(=O)O)c(=O)c2cc(F)c(N3CCN(C(=S)NC(=O)c4ccc(F)c(F)c4)CC3)cc21
    1%	?	0%	?	-4%
> COc1ccc2nc(NC(=O)c3nc(SCc4ccc(F)cc4)ncc3Cl)sc2c1
    /	-20%	-1%	?	7%
> COc1ccccc1-c1cc(C(=O)NC2CCCC2)no1
    -3%	2%	-61%	?	13%
> O=C(CCN1C(=O)c2ccncc2C1=O)Nc1ccc(F)cc1
    -4%	5%	-1%	-4%	4%
> CN(CC(=O)NCc1ccc(F)cc1)S(=O)(=O)c1ccc2[nH]c3c(c2c1)CCCC3
    /	21µM*	?	18µM*	7%

# Random excerpt: two entries already listed, in no set order.
# The line under a structure holds: uPA generation	DT40 TDP1 CPT	miR-21 reporter	DT40 TDP1 no CPT	TDP1 block
> CN(C)c1ccc(CC(=O)N2CCCC(c3cc(C(=O)Nc4ccc5c(c4)OCO5)no3)C2)cc1 (stereo unspecified)
    /	16µM*	/	13µM*	/
> Cc1cc(N2CCN(S(=O)(=O)c3ccc(Cl)c(Cl)c3)CC2)c2ccccc2n1
    ?	?	26%	16µM*	-1%

# The main list resumes, repeating the 2 entries before the break.
# The line under a structure holds: uPA generation	DT40 TDP1 CPT	miR-21 reporter	DT40 TDP1 no CPT	TDP1 block
> O=C(CCN1C(=O)c2ccncc2C1=O)Nc1ccc(F)cc1
    -4%	5%	-1%	-4%	4%
> CN(CC(=O)NCc1ccc(F)cc1)S(=O)(=O)c1ccc2[nH]c3c(c2c1)CCCC3
    /	21µM*	?	18µM*	7%
> CN(CC(=O)NCc1ccccc1)S(=O)(=O)c1ccc2[nH]c3c(c2c1)CCCC3
    /	?	-1%	?	5%
> Cc1cccc(C)c1NC(=O)CN(C)S(=O)(=O)c1ccc2[nH]c3c(c2c1)CCCC3
    /	?	29%	21µM*	2%
> Cc1cccc(N(C)C(=O)CN(C)S(=O)(=O)c2ccc3[nH]c4c(c3c2)CCCC4)c1
    /	23µM*	7%	?	9%
> Cc1cc(C)cc(NC(=O)CN(C)S(=O)(=O)c2ccc3[nH]c4c(c3c2)CCCC4)c1
    /	?	18%	?	10%
> CC(C)(C)S(=O)(=O)c1cnc(-c2ccccn2)nc1N
    -2%	?	-2%	?	8%
> O=C(COC(=O)c1cc([N+](=O)[O-])ccc1NCCO)c1ccc(Cl)cc1
    -6%	1%	-1%	-8%	3%
> Cc1sc2nc(SCC(=O)Nc3c(C)n(C)n(-c4ccccc4)c3=O)n(C)c(=O)c2c1C
    5%	-26%	4%	-30%	-2%
> COc1ccccc1NC(=O)CSc1nc2sc(C)c(C)c2c(=O)n1C
    6%	21µM*	-1%	13µM*	2%
> COc1ccccc1NC(=O)c1cnc(SCC(=O)NCC2CCCO2)n(C)c1=O (stereo unspecified)
    -4%	10µM*	/	?	0%
> Cc1sc2nc(SCC(=O)NCCO)n(C)c(=O)c2c1C
    /	-15%	-1%	-3%	4%
> Cc1sc2nc(SCC(=O)OC(C)C)n(C)c(=O)c2c1C
    6%	-27%	2%	23µM*	6%
> O=C(NCC(c1ccco1)N1CCOCC1)c1ccc(Cl)cc1 (stereo unspecified)
    7%	-17%	/	-11%	0%
> COc1ccc(N2CCN(C(=O)CSc3n[nH]c(-c4ccccc4Cl)n3)CC2)cc1
    /	?	-7%	?	3%
> CC(C)C[C@@H](COc1ccccc1)N1CCN(Cc2ccccc2)CCC1=O
    8%	?	0%	?	/

# Assay outcomes as filed in PubChem.
